One assay concerns the target SRC (Homo sapiens, UniProt P12931). Put plainly: SRC Biochemical Assay Protocol (microfluidic mobility shift assay, FLPeptide4 substrate). The settings on record: read-out: Src Biochemical Assay Protocol IC50.
The subject of the next assay is RBE cells. Put plainly: Cell Viability Protocol (CellTiterGlo), RBE cells. In general terms: In ATP-based viability assays light output follows the ATP content of the culture.
In assay [1] the test system is phospho-S6RP (Ser 235/236) in RBE cells. The assay is described as follows: Cellular Proliferation Protocol (cellular phospho-S6RP HTRF), RBE cells. The settings on record: read-out: Cellular Proliferation Protocol IC50, 6 hours treatment, RBE or SNU-1079 cells, cell line not given. In general terms: In TR-FRET formats the signal depends on donor and acceptor labels being close together.

Amino acid sequences for entries named in this document (tags omitted).
UniProt P12931, whole entry: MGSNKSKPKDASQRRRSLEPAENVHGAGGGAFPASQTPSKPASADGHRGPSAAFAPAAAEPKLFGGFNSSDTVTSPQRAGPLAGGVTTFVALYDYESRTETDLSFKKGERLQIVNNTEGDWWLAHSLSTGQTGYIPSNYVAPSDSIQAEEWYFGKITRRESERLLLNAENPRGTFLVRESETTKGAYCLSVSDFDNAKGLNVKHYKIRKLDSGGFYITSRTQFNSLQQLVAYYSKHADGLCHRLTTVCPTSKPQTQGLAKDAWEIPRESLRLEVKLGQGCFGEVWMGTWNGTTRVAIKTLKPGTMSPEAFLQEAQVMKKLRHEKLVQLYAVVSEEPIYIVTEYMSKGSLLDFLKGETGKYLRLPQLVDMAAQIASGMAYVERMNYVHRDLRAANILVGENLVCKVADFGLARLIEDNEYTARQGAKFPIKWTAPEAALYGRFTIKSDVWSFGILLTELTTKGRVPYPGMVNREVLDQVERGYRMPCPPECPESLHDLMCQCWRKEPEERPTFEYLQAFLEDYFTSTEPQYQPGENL

Like-named read-outs stand apart in the source and are kept apart here.

Take `CN(C)C/C=C/C(=O)N1CC(C#Cc2c(-c3ccc(Oc4ccccc4)cc3)c3c(N)ncnc3n2C)C1` [III-84]: on SRC, the IC50 lay in the range of 0.01 to 1 µM.
Consider `C=CC(=O)N1CCC(N2CC(C#Cc3[nH]c4ncncc4c3-c3ccc(Oc4ccccc4)cc3)C2)CC1`, for which the IC50 was 0.01 to 1 µM in the assay on RBE cells (read-out: Cell Viability Protocol IC50, RBE or SNU-1079 cells, 72 or 120 hour, cell line and time not given); 1 to 10 µM on SRC; 0.01 to 1 µM in assay [1].
On to `COc1cc(Oc2ccccc2)ccc1-c1c(C#C[C@@H]2[C@H]3CN(C(=O)/C=C/CN(C)C)C[C@@H]23)n(C)c2ncnc(N)c12`, for which the IC50 with RBE cells (read-out: Cell Viability Protocol IC50, RBE or SNU-1079 cells, 72 or 120 hour, cell line and time not given, tested form: formate (1.3 equivalents of formic acid)) is less than 0.01 µM; at SRC (tested form: formate (1.3 equivalents of formic acid)), 0.01 to 1 µM.
